Target: human neuropeptide Y5 receptor (Homo sapiens, UniProt Q15761)
Experiment: NPY5 HTS centrifugation assay: competition with 125I-PYY for binding to membranes of NPY5-transfected HEK-293 cells
Conditions: read-out: IC50 HNPY5r; inhibition of 125I-PYY binding; values given in μM

Protein sequences, listed by entry. Tags and fused reporters are not part of them.
UniProt Q15761, whole entry: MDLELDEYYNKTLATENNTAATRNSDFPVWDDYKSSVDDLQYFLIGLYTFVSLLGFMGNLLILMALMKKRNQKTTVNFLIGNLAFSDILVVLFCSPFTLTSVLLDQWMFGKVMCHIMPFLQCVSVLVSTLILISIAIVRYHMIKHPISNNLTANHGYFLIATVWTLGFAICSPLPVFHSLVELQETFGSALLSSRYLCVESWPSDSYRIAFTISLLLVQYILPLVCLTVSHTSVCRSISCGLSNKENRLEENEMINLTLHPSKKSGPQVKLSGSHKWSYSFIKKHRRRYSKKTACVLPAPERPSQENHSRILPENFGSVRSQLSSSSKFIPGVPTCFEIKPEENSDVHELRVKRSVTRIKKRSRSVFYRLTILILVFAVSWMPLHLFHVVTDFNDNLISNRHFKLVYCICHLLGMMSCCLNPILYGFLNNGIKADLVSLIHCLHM

## Cc1cc(C(=O)Nc2ccccc2-c2cc3ccccc3[nH]2)nn1-c1cccc(C(F)(F)F)c1
  IC50: 5 µM

From patent US6511998B2, “Pyrazole carboxamides useful for the treatment of obesity and other disorders” (priority 1999, dated 2003)
